According to patent KR20070037041A, “누에 수번데기로부터 아데노신 유도체 화합물을 정제하는방법 및 아데노신 유도체 화합물을 포함하는 발기부전치료용 조성물” (대한민국(관리부서:농촌진흥청장), priority 2005, dated 2007):

Test system: bovine endothelial cells (CPAE) [소내피세포(CPAE)]
Assay type: cell-based

## 5-{6-(디메틸아미노)-9H-푸린-9-일}-테트라히드로-4'-푸란-3'-올-5'-o-테트라파이로(tetrafyro)-2H-피란-3'',4'',5''-트리올 [RPC-IV]
  cytotoxicity: 무독성
